The values that follow come from patent publication US12583945B2, “Synthesis of uniformly defined molecular weight mannosylated dextrans and derivatives thereof” (Navidea Biopharmaceuticals, Inc., priority 2020, dated 2026).

For the data set, the target named is T1, CD206 (Mus musculus, UniProt Q61830).
T1 construct: unobstructed access to the CD206 receptors expressed by these cells; from tissue; host or cells: Live Balb/c mice: liver Kupffer cells, large-intestine macrophages, and tumor-associated macrophages in CT26 syngeneic tumors
T1 sequence (Q61830 20-1456): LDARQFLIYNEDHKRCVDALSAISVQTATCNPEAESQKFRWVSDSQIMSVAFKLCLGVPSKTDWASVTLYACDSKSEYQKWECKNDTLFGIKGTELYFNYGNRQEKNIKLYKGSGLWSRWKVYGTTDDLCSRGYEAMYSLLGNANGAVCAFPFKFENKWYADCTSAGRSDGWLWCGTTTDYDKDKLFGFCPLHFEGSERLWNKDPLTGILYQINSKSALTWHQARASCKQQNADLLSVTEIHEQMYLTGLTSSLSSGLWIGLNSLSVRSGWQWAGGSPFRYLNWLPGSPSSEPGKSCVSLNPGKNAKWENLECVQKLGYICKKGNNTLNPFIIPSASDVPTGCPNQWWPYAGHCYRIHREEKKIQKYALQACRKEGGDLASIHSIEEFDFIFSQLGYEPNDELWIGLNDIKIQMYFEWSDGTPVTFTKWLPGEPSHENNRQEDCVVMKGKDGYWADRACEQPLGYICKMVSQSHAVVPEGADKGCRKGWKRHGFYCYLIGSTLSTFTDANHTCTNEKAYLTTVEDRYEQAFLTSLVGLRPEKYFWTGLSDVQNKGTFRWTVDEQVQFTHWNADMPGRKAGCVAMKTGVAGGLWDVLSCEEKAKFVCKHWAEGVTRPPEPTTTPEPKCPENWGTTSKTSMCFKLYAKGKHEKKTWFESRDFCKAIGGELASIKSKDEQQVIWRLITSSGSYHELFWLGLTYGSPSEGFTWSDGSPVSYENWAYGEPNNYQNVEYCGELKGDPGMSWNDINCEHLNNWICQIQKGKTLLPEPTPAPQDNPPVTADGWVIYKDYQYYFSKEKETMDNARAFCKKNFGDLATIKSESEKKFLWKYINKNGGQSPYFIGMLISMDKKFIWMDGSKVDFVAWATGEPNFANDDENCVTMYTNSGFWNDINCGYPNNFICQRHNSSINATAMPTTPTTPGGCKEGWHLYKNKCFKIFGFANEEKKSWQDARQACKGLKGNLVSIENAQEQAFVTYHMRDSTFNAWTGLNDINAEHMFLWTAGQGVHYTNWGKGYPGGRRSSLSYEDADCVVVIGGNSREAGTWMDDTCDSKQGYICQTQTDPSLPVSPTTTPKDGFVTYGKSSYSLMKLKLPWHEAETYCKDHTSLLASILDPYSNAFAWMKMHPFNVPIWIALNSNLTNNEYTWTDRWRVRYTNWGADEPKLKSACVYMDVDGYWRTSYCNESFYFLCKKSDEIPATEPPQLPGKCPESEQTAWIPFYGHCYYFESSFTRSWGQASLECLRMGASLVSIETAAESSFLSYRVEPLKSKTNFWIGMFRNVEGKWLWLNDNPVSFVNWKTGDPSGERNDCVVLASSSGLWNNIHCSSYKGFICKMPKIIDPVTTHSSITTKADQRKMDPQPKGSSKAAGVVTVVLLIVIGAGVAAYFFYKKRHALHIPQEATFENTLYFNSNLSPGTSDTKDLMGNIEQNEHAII
The data set is described as follows: Organ and tumor localization (PET/CT or SPECT/CT) of radiolabeled mannosylated dextrans in tumor-bearing mice. In kind it is in vivo. The settings on record: IV injection, Balb/c mice with CT26 syngeneic tumors, imaged approximately 1 hour after injection; comparison between the two constructs. On the procedure: A mannosylated dextran construct carrying a DOTA chelator was synthesized according to the presently disclosed methods starting with a 3.5 kDa dextran backbone. […] This construct was labeled with [68]Ga. Tilmanocept (10 kDa dextran backbone carrying a DTPA chelator) was prepared by the method described in the 990 patent. […] Tilmanocept was labeled with [99m]Tc. These constructs were injected intravenously (IV) into Babl/c mice that had been implanted with CT27 syngeneic tumors. Syngeneic tumors contain numerous CD206+ tumor associated macrophages (TAMs). In addition, CD206+ macrophages occur normally in most tissues of the body including the large intestine. The liver contains large numbers of macrophage-like CD206+ Kupffer cells which are exposed directly to the blood flow providing the injected mannosylated dextrans with unobstructed access to the CD206 receptors expressed by these cells. In most tissues and in tumors, mannosylated dextrans must exit the blood flow and penetrate into the tissues or tumors to encounter CD206 expressing cells (mostly macrophages), Four animals were injected with each labeled construct. […] A: a non-crosslinked mannosylated dextran construct with a DOTA chelator built on 3.5 kDa dextran backbone and labeled with [68]Ga (calculated Mw=8.7 kDa). B: Tilmanocept (10 kDa dextran backbone) with a DTPA chelator labeled with [99m]Tc (measured Mw=37.5 kDa).

As to “dextran 3-[(2-aminoethyl)thio]propyl 17-carboxy-10,13,16-tris(carboxymethyl)-8-oxo-4-thia-7,10,13,16-tetraazaheptadec-1-yl 3-[[2-[[1-imino-2-(D-mannopyranosylthio)ethyl]amino]ethyl]thio]propyl ether complexes [Tilmanocept]”, the “% ID/g that had localized to the liver” value is reported as “nearly the same”.
